Usually Ki stands for the dissociation constant of the complex between target and ligand, obtained from inhibition or displacement. Higher therefore signals lower affinity.

Chains of the proteins cited; added tags and fusions are not shown.
UniProt P31645, whole entry: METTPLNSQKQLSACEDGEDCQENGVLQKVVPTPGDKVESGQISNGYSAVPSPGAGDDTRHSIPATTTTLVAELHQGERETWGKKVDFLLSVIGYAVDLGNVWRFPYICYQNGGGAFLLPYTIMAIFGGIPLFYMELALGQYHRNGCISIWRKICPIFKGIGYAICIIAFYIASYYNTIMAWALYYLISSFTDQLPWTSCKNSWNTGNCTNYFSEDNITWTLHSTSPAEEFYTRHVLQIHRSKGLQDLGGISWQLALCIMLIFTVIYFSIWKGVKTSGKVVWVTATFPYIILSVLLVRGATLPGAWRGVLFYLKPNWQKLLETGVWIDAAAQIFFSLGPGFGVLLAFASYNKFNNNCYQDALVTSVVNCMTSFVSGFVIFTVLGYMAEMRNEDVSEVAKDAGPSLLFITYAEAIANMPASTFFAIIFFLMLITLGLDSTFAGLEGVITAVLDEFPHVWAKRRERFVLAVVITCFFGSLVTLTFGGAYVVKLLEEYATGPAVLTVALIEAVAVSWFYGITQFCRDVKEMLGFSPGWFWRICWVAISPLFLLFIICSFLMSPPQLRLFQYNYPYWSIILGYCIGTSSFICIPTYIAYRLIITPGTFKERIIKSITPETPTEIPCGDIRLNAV
UniProt P23975, whole entry: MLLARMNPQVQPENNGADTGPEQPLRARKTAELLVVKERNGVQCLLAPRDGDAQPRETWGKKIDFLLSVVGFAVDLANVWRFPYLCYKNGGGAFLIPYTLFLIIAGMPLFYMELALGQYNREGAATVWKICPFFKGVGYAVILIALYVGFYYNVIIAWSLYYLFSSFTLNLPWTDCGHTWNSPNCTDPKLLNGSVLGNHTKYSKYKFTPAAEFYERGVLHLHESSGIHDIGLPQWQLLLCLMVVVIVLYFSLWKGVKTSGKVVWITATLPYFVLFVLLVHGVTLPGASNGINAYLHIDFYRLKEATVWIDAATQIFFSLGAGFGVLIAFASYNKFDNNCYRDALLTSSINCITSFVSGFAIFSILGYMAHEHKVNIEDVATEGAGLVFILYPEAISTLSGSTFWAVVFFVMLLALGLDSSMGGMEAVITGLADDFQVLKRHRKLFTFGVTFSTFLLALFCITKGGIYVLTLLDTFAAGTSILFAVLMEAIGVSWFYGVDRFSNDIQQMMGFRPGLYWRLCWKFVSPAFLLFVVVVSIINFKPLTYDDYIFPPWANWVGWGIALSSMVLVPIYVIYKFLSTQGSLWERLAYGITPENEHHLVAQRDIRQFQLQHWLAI
UniProt Q01959, whole entry: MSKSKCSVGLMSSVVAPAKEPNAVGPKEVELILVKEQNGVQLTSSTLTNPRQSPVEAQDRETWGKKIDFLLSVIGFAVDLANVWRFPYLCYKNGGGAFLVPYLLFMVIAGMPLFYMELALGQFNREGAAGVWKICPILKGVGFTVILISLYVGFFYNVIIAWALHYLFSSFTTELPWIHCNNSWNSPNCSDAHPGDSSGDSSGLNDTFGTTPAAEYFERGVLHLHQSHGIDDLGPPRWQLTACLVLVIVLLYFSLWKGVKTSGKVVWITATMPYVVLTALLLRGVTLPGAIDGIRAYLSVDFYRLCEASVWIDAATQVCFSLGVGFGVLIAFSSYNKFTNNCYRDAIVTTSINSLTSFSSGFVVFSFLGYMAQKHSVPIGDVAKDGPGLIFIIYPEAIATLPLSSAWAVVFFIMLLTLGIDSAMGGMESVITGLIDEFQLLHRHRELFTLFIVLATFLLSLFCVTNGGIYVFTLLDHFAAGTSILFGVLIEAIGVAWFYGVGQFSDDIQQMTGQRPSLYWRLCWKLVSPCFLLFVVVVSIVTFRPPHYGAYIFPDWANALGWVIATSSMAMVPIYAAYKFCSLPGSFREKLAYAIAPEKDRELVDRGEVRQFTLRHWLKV

Experimental findings from BindingDB's records for doi:10.1016/s0960-894x(99)00562-4 (Georgetown University Medical Center, 1999) are described below.

Assay [1] concerns the target T1, Sodium-dependent serotonin transporter (Homo sapiens, UniProt P31645). Description: ChEBML_202305. The source says: (§1) Inhibition of monoamine [3H]5-HT reuptake
The target of assay [2] is T2, Sodium-dependent noradrenaline transporter (Homo sapiens, UniProt P23975). Put plainly: ChEBML_143135. As to the method:
(§2) Norepinephrine transporter activity was determined by inhibition of monoamine [3H]-NE reuptake

In assay [3] the target is T3, Sodium-dependent dopamine transporter (Homo sapiens, UniProt Q01959). Description: Binding affinity against dopamine transporter (DAT) was evaluated using competitive binding assay and [3H]mazindol as a radioligand.
For assay [4], the target named is T3, Sodium-dependent dopamine transporter. Put plainly: Inhibition of monoamine [3H]DA reuptake.
Assay [5] concerns the target T1, Sodium-dependent serotonin transporter. The description is as §1.
The target in assay [6] is T2, Sodium-dependent noradrenaline transporter. Described as §2.

Each structure is given as a SMILES string. Where “and” joins values, the source holds several entries; their conditions need not be identical. Equal entries are not always repeated.

As to `CN1CC[C@H](c2ccc(Cl)cc2)[C@H](CCCN2CC[S][Re]3(=[O])[S]CC[N]3CC2)C1` (stereo not given in full) [piperidine based analogue of cocaine], the Ki in assay [1] is 243 nM; in assay [2] it was 231 nM; in assay [3], 96 nM; in assay [4] it was 193 nM.
Turning to `CN1CC[C@H](c2ccc(Cl)cc2)[C@H](CCCN2CC[S][Re]3(=[O])[S]CC[N]3C(=O)C2)C1` (stereo not given in full), the inhibitory constant (Ki) in assay [5] is 888 nM; in assay [1], 888 nM; in assay [2], 2030 nM; in assay [3] it was 43 nM; in assay [4] it was 110 nM and 112 nM; in assay [6], 2030 nM.
